Measurements published in US20260232826A1, “ANTIBODY-DRUG CONJUGATES AND THEIR USES” (Mablink Bioscience, priority 2022, published 2026).

Experiments:
[1] = Pulmonary inflammatory and toxicity evaluation in mice; type: in vivo, C57/BL6 mice; design: Lung inflammatory level by CD45 expression (leucocyte infiltration): key to the marks not given beside the values
Excerpt: Bleomycin has been widely used in rodents to model pulmonary fibrosis for the study of mechanisms involved in fibrogenesis and for evaluation of potential therapies. To assess ADC pulmonary toxicity, bleomycin-induced pulmonary fibrosis was induced in mice following known procedures as described by Walter and Kleeberger, Mouse Models of Bleomycin-Induced Pulmonary Fibrosis, 2008, Curr. Protoc. Pharmacol. 40:5.46.1-5.46.17. At day 0, 4 and 8, female C57/BL6 mice (Janvier Labs, Le Genest-Saint-Isle, France) were lightly anesthetized with isoflurane and intranasally administered with 20 μL of 1 mg/kg bleomycin PBS solution (Bleomycine Bellon, 15 mg for injection) or PBS (negative control mice). Non-bleomycin-conditioned mice were included as a negative control group. At day 11, mice (n=6 animals per group) were treated with tested conjugates (10 mg/kg i.p.) and were monitored for apparent signs of toxicity and weight loss during the duration of the experiment. A positive control group was included, treated with clinically approved conjugate Enhertu® (10 mg/kg i.p.), which is known to induce interstitial lung diseases and pneumonitis preclinically and in a small percentage of patients. At day 25 all mice were sacrificed, broncho-alveolar supernatant was obtained (by broncho-alveolar lavage) and lungs organs were harvested, weighted, and fixed in 0.1% (w/v) formaldehyde in PBS. After fixation, lungs were rinsed with a 0.02% (w/v) sodium azide in PBS solution and embedded in paraffin for histological staining. Slides were stained with anti-CD45 antibody (Abcam cat #ab10558, 1:500) to quantify level of leucocyte infiltration in the lungs. Secondary biotinylated goat anti-rabbit antibody (Vector Laboratories cat #BA-1000, 1:300) and Avidin-HRP (Vector Laboratories cat #A-2004) were used for detection. Histological experiments and imaging were outsourced at the Centre d'Imagerie Quantitative Lyon-Est (CiQLE) platform (Lyon, France). Random sections of IHC images (30% zoomed) were processed using native functionalities of the Fiji software (developed and maintained by the Laboratory for Optical and Computational Instrumentation of the University of Wisconsin-Madison, USA) to count CD45 positive cells within slides (1 slide per lung) and assess level of leucocyte infiltration. Monitoring of total counts of lymphocytes (CD3/CD4), eosinophils (CCR3/SiglecF), neutrophils (Ly6g/Ly6C) and macrophages (F4/80) in broncho-alveolar supernatants obtained from non-bleomycin-conditioned mice was done by flow cytometry. Inflammatory cytokines levels in broncho-alveolar supernatants obtained from non-bleomycin-conditioned mice were quantified by ELISA. IL-2, IL-4, IL-5, IL-6, IL-9, IL-10, IL-13 were quantified using Bio-Plex Pro™ Mouse Cytokine Th2 Panel (Bio-Rad cat #L60000UKVT), following manufacturer's instructions. TGF-β and IL-17 were quantified using Mouse TGF-beta 1 DuoSet and Mouse IL-17 DuoSet ELISA kits respectively (R&D systems cat #DY1679 and DY421), following manufacturer's instructions.
Statistical significance was evaluated using one-way ANOVA (Tukey method) using GraphPad Prism 9 software. p-values are represented as * (p<0.033), ** (p<0.002), *** (p<0.0002), and **** (p<0.0001) and “ns” stands for non-significant (p>0.123).

[2] = system: folate receptor alpha negative (FRα neg) BT-474 breast cancer model; assay: In vivo efficacy, FRα negative BT-474 xenograft; design: species or system SCID mice; details: IV once at 10 mg/kg (FIG. 17)
Excerpt: Four to five-week-old female CB-17 severe combined immunodeficient (SCID) mice are obtained and quarantined for 7 days prior to study initiation. Mice are inoculated subcutaneously with cells (5-10×10^6 cells per mouse) resuspended in PBS (OV-90, SW-620, KB, BT-474 cell lines) or 50% BD Matrigel (Corning®) in PBS (PA-1, IGROV-1, OVCAR-3, NCI-H2110 cell lines). When average tumor volume reached about 120-150 mm^3 mice are randomized (typically 7 mice per group) and treated by a single (unless stated otherwise) intravenous injection of PBS (negative control) or investigated antibody-drug conjugate. Tumor volumes are measured every 3-5 days using a caliper device (length×width) and calculated using the following formula V=4/3×π×R3, where R represents the radius. Mice are sacrificed when the tumor volume exceeded 1500 mm^3 or in case of ulceration of the tumor.
Four to five-week-old female CB-17 severe combined immunodeficient (SCID) mice were obtained from Janvier labs (Le Genest-Saint-Isle, France) and quarantined for 7 days prior to study initiation. […] Tumor volumes were measured every 3-5 days using a caliper device (length×width) and calculated using the following formula V=4/3×π×R^3, where R represents the radius. […]

With “trastuzumab deruxtecan [Enhertu®, reference compound]” the “Lung inflammatory level by CD45 expression (leucocyte infiltration)” value ([1]; mouse, in vivo) was “+++”, the “leucocyte inflammatory infiltration (IHC CD45) compared to untreated group” value ([1]; mouse, in vivo) was “significant increase” and the “lymphocyte counts in broncho-alveolar supernatants compared to untreated control group” value ([1]; mouse, in vivo) was “significant increase”. The “macrophages, neutrophils and eosinophils counts in broncho-alveolar supernatants compared to untreated control group” value ([1]; mouse, in vivo) was “significant increase”, the “leucocyte inflammatory infiltration (IHC CD45) compared to bleomycin-conditioned control group” value ([1]; mouse, in vivo, ip, 10 mg/kg) was “significant increase” and the “inflammatory cytokine levels in broncho-alveolar supernatants compared to untreated group” value ([1]; non-bleomycin-conditioned mice, ELISA (FIG. 21A)) was “significant increase in IL-13, IL-17 and TGF-β cytokine levels”. The “efficacy of positive control, BT-474 (HER2 positive) xenograft” value [2] was “efficacious”.
